Laboratory results from US11193004B2, “Phosphoric ester preparations with reduced hygroscopicity” (LANXESS Deutschland GmbH, priority 2013, dated 2021).

Assay: Solubility in water of phosphoric esters b)

Substance: tert-Butylated triphenyl phosphate [TBPP]
- Solubility in water at 25° C.: 2.7 µg/mL
